{"sequences": {"note": "Amino acid sequences for entries named in this document (tags omitted). Residues count along the entry.", "UniProt P04049, whole entry": "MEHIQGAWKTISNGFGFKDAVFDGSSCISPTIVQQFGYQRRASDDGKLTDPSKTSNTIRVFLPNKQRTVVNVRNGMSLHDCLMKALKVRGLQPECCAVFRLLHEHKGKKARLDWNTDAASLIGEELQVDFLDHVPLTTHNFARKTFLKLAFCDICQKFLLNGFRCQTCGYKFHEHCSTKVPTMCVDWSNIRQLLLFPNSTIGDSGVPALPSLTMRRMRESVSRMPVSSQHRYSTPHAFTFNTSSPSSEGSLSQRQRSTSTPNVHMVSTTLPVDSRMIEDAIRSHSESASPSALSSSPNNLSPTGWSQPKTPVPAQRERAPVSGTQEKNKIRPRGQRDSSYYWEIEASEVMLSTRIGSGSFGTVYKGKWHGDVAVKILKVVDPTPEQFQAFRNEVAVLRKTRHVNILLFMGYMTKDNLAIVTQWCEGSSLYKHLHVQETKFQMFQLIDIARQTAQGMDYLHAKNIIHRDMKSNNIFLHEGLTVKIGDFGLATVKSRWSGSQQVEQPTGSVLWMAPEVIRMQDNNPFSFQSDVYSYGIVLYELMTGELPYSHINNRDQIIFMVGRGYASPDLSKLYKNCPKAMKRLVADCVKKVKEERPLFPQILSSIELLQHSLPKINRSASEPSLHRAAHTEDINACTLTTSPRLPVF", "UniProt P41240, whole entry": "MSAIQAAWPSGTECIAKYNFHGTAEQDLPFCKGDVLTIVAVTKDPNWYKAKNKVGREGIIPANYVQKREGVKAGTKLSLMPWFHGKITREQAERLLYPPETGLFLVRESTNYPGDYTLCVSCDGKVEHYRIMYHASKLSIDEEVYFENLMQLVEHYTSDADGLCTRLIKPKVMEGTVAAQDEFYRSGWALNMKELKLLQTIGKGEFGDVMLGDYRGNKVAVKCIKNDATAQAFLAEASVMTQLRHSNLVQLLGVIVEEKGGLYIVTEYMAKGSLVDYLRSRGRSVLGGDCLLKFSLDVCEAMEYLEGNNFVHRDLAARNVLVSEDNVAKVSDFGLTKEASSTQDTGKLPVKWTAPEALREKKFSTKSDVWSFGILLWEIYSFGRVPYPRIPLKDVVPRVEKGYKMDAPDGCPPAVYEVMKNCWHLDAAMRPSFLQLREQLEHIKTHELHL", "UniProt P11362, 22-822 limits assumed": "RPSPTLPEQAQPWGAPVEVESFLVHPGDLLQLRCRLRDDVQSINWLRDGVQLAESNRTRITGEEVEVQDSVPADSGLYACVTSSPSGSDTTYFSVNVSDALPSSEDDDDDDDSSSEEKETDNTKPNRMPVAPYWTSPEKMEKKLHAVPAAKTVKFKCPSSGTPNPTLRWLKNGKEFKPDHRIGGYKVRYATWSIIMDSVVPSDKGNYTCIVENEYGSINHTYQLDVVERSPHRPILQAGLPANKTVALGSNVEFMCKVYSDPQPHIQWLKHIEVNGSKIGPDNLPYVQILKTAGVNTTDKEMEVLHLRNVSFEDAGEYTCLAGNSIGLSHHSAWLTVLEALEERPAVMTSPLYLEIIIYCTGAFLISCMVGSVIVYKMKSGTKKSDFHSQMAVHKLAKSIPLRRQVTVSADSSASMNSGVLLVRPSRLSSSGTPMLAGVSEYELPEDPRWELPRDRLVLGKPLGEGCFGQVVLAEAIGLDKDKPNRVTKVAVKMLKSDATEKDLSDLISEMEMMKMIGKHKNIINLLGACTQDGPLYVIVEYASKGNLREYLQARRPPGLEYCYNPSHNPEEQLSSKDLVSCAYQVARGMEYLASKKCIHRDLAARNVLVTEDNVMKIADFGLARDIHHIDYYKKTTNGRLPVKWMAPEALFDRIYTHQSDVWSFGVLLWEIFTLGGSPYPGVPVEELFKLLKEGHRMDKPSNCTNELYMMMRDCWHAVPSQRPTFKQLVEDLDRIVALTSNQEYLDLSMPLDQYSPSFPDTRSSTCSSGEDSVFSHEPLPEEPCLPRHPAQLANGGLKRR", "UniProt P36888, 27-993 limits assumed": "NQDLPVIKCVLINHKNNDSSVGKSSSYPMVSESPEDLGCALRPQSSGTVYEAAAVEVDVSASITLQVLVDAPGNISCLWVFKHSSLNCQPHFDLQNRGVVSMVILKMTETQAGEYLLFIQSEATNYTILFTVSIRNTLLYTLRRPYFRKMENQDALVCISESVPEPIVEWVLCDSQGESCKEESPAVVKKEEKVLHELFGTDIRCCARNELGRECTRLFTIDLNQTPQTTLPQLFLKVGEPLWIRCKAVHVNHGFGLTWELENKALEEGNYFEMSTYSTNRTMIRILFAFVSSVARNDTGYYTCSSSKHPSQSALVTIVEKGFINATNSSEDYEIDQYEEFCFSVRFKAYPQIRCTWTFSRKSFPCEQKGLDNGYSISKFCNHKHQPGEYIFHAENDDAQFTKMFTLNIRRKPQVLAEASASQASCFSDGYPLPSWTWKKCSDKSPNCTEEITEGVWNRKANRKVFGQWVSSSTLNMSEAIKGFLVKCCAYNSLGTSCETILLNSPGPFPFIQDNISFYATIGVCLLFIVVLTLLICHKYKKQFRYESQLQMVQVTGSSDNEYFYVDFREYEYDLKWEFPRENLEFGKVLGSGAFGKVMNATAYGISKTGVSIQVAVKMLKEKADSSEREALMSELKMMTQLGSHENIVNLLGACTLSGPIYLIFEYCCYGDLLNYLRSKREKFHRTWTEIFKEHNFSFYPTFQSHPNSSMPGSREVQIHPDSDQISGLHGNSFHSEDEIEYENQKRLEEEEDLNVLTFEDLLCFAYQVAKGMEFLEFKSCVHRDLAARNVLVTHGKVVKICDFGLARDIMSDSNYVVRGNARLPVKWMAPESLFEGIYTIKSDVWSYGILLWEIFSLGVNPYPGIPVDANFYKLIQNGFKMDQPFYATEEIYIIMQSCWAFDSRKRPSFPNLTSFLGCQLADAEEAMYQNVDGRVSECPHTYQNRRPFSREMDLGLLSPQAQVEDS", "UniProt P06239, whole entry": "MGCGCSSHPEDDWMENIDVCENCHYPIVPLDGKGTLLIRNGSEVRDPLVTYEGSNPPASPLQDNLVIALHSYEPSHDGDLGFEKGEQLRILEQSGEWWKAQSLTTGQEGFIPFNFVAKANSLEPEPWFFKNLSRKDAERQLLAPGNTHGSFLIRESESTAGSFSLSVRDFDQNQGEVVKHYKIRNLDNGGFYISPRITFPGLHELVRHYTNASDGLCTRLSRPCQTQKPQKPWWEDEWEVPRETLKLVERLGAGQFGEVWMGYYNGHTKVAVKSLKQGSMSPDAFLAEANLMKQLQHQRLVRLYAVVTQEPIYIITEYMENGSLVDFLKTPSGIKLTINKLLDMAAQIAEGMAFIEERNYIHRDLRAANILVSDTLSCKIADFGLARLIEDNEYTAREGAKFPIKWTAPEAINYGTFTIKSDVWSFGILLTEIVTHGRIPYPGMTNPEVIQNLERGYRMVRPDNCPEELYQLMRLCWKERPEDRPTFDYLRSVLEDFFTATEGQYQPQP", "UniProt Q9Y4K4, whole entry": "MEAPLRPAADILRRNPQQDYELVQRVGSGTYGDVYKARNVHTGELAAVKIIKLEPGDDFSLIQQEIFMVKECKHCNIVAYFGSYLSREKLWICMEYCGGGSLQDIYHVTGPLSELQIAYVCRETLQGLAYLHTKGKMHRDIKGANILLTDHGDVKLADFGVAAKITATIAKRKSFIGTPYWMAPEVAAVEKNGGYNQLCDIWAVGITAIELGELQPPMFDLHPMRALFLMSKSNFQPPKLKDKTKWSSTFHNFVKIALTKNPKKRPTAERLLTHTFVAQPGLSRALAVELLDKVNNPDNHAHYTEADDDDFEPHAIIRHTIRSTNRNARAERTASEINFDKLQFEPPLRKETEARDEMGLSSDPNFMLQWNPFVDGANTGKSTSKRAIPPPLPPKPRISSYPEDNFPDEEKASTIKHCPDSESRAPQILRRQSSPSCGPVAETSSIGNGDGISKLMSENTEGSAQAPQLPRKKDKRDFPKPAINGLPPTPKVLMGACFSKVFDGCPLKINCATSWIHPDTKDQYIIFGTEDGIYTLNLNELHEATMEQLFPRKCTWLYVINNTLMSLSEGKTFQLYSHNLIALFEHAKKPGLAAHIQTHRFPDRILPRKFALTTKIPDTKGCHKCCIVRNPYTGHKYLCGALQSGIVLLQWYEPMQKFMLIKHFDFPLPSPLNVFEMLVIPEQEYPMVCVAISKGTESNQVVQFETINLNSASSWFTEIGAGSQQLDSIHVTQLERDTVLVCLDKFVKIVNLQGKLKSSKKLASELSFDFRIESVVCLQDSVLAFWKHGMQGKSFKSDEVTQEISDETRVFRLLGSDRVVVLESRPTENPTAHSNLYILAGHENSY", "UniProt P16234, 24-1089 limits assumed": "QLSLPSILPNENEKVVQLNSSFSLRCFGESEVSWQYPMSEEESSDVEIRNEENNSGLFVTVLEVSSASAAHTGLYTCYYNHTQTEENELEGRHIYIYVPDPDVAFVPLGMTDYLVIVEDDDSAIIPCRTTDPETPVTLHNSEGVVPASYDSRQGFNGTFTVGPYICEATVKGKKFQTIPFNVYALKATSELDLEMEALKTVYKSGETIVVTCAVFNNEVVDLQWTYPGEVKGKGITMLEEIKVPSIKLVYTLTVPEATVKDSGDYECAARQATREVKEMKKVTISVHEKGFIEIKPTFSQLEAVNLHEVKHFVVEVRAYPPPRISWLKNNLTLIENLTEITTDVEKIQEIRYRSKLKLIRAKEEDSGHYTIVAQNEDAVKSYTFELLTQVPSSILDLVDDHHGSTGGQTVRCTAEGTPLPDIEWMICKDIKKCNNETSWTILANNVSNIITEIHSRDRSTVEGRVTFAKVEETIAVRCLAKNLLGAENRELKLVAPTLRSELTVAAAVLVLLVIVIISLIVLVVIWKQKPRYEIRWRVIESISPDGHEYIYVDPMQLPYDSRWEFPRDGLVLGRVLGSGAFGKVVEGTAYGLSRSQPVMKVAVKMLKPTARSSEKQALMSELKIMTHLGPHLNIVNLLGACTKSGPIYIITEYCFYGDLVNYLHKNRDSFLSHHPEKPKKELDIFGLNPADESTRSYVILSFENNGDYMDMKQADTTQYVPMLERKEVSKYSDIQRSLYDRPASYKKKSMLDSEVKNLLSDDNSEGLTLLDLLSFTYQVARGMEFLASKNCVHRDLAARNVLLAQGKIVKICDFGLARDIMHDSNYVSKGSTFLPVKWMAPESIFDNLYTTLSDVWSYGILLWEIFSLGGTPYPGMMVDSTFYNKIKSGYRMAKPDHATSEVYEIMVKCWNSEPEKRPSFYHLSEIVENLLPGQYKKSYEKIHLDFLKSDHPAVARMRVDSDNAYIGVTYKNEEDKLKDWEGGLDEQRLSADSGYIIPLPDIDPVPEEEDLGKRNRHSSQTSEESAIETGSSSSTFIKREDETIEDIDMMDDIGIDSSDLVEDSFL", "UniProt P17948, 27-1338 limits assumed": "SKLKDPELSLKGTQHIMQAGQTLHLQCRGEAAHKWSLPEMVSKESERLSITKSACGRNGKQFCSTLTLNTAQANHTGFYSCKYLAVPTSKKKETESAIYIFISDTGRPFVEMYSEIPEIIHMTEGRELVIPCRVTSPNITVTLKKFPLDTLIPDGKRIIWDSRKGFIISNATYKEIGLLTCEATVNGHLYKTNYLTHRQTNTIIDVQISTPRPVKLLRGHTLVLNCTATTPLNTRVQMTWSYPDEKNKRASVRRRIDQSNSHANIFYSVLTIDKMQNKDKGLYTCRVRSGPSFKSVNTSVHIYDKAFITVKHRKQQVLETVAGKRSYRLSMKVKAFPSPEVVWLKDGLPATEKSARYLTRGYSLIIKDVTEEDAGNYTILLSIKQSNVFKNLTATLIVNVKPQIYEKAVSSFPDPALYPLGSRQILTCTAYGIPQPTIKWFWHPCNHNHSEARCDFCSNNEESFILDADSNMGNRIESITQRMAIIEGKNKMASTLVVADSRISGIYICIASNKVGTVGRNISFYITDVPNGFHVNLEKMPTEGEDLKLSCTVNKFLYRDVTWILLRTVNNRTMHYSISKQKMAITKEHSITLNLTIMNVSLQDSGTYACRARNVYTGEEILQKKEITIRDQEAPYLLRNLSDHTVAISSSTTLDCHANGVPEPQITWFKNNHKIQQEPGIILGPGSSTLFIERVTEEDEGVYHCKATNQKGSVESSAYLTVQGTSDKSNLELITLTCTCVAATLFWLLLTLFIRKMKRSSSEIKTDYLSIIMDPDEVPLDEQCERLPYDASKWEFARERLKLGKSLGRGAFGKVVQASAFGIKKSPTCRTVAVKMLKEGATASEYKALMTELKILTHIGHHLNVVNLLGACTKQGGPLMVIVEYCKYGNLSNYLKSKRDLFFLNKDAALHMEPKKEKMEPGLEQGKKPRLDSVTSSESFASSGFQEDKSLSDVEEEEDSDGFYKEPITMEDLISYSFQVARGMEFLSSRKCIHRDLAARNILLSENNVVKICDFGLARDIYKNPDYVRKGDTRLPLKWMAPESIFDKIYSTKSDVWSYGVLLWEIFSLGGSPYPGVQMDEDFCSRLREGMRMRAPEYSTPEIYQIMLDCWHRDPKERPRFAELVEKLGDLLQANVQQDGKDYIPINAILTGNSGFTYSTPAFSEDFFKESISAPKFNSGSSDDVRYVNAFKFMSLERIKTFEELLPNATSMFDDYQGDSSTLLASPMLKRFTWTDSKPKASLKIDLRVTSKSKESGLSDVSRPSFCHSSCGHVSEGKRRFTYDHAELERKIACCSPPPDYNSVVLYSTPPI"}, "source": "patent US10196378B2", "about": "“Inhibitors of BCR-ABL mutants and use thereof” (THE REGENTS OF THE UNIVERSITY OF MICHIGAN, priority 2016, dated 2019)", "key": {"Abl2/Arg": {"biological_target": "Abl2/Arg (Homo sapiens (Human), UniProt P42684)", "experiment": "NanoSyn single-concentration kinase inhibition", "assay_type": "biochemical"}, "C-Raf": {"biological_target": "C-Raf (Homo sapiens (Human), UniProt P04049)", "experiment": "NanoSyn single-concentration kinase inhibition", "assay_type": "biochemical"}, "Csk": {"biological_target": "Csk (Homo sapiens (Human), UniProt P41240)", "experiment": "NanoSyn single-concentration kinase inhibition", "assay_type": "biochemical"}, "DDR1": {"biological_target": "DDR1 (Homo sapiens (Human), UniProt Q08345)", "experiment": "NanoSyn single-concentration kinase inhibition", "assay_type": "biochemical"}, "EPH-A3": {"biological_target": "EPH-A3 (Homo sapiens (Human), UniProt P29320)", "experiment": "NanoSyn single-concentration kinase inhibition", "assay_type": "biochemical"}, "FGFR1": {"biological_target": "FGFR1 (Homo sapiens (Human), UniProt P11362)", "experiment": "NanoSyn single-concentration kinase inhibition", "assay_type": "biochemical"}, "FGFR3": {"biological_target": "FGFR3 (Homo sapiens (Human), UniProt P22607)", "experiment": "NanoSyn single-concentration kinase inhibition", "assay_type": "biochemical"}, "FLT3": {"biological_target": "FLT3 (Homo sapiens (Human), UniProt P36888)", "experiment": "NanoSyn single-concentration kinase inhibition", "assay_type": "biochemical"}, "Lck": {"biological_target": "Lck (Homo sapiens (Human), UniProt P06239)", "experiment": "NanoSyn single-concentration kinase inhibition", "assay_type": "biochemical"}, "Lyn-A": {"biological_target": "Lyn-A (Homo sapiens (Human), UniProt P07948)", "experiment": "NanoSyn single-concentration kinase inhibition", "assay_type": "biochemical"}, "MAP4K5": {"biological_target": "MAP4K5 (Homo sapiens (Human), UniProt Q9Y4K4)", "experiment": "NanoSyn single-concentration kinase inhibition", "assay_type": "biochemical"}, "PDGFRα": {"biological_target": "PDGFRα (Homo sapiens (Human), UniProt P16234)", "experiment": "NanoSyn single-concentration kinase inhibition", "assay_type": "biochemical"}, "PDGFRβ": {"biological_target": "PDGFRβ (Homo sapiens (Human), UniProt P09619)", "experiment": "NanoSyn single-concentration kinase inhibition", "assay_type": "biochemical"}, "Tie2": {"biological_target": "Tie2 (Homo sapiens (Human), UniProt Q02763)", "experiment": "NanoSyn single-concentration kinase inhibition", "assay_type": "biochemical"}, "VEGFR1 (FLT1)": {"biological_target": "VEGFR1 (FLT1) (Homo sapiens (Human), UniProt P17948)", "experiment": "NanoSyn single-concentration kinase inhibition", "assay_type": "biochemical"}, "VEGFR3 (FLT4)": {"biological_target": "VEGFR3 (FLT4) (Homo sapiens (Human), UniProt P35916)", "experiment": "NanoSyn single-concentration kinase inhibition", "assay_type": "biochemical"}, "[1]": {"experiment": "Pharmacokinetics after IV bolus or oral administration in mice", "assay_type": "in vivo"}}, "note": "Values joined by “and” are separate entries in the source; they are usually repeats but may differ in a detail not shown here. Identical values can stand only once."}
{"smiles": "CC(C)(C)c1cc(NC(=O)Nc2ccc(Oc3ccc4ncncc4c3)cc2)n(-c2ccc3ncccc3c2)n1", "values": [{"measurement": "% inhibition at 100 nM, Abl2/Arg", "setting": "Abl2/Arg", "result": 93, "unit": "%"}, {"measurement": "% inhibition at 100 nM, C-Raf", "setting": "C-Raf", "result": 98, "unit": "%"}, {"measurement": "% inhibition at 100 nM, Csk", "setting": "Csk", "result": 76, "unit": "%"}, {"measurement": "% inhibition at 100 nM, DDR1", "setting": "DDR1", "result": 103, "unit": "%"}, {"measurement": "% inhibition at 100 nM, EPH-A3", "setting": "EPH-A3", "result": 47, "unit": "%"}, {"measurement": "% inhibition at 100 nM, FGFR1", "setting": "FGFR1", "result": 71, "unit": "%"}, {"measurement": "% inhibition at 100 nM, FGFR3", "setting": "FGFR3", "result": 95, "unit": "%"}, {"measurement": "% inhibition at 100 nM, FLT3", "setting": "FLT3", "result": 92, "unit": "%"}, {"measurement": "% inhibition at 100 nM, Lck", "setting": "Lck", "result": 91, "unit": "%"}, {"measurement": "% inhibition at 100 nM, Lyn-A", "setting": "Lyn-A", "result": 92, "unit": "%"}, {"measurement": "% inhibition at 100 nM, MAP4K5", "setting": "MAP4K5", "result": 8, "unit": "%"}, {"measurement": "% inhibition at 100 nM, PDGFRα", "setting": "PDGFRα", "result": 92, "unit": "%"}, {"measurement": "% inhibition at 100 nM, PDGFRβ", "setting": "PDGFRβ", "result": 60, "unit": "%"}, {"measurement": "% inhibition at 100 nM, Tie2", "setting": "Tie2", "result": 96, "unit": "%"}, {"measurement": "% inhibition at 100 nM, VEGFR1 (FLT1)", "setting": "VEGFR1 (FLT1)", "result": 49, "unit": "%"}, {"measurement": "% inhibition at 100 nM, VEGFR3 (FLT4)", "setting": "VEGFR3 (FLT4)", "result": 53, "unit": "%"}, {"measurement": "AUC0-24 h", "setting": "[1]; IV bolus, 15 mg/kg", "result": 40078.4, "unit": "ng·h/mL"}, {"measurement": "Clobs", "setting": "[1]; IV bolus, 15 mg/kg", "result": 6.237, "unit": "mL/min/kg"}, {"measurement": "T1/2", "setting": "[1]; IV bolus, 15 mg/kg", "result": 2.4, "unit": "h"}, {"measurement": "Vz obs", "setting": "[1]; IV bolus, 15 mg/kg", "result": 1.3129, "unit": "L/kg"}, {"measurement": "AUC0-24 h", "setting": "[1]; PO, 30 mg/kg", "result": 20709.25, "unit": "ng·h/mL"}, {"measurement": "Bioavailability", "setting": "[1]; PO, 30 mg/kg", "result": "26% and 25.6%"}, {"measurement": "Clobs", "setting": "[1]; PO, 30 mg/kg", "result": 23.843, "unit": "mL/min/kg"}, {"measurement": "Cmax", "setting": "[1]; PO, 30 mg/kg", "result": 11850.0, "unit": "ng/mL"}, {"measurement": "T1/2", "setting": "[1]; PO, 30 mg/kg", "result": 4, "unit": "h"}, {"measurement": "Tmax", "setting": "[1]; PO, 30 mg/kg", "result": 0.5, "unit": "h"}, {"measurement": "Vz obs", "setting": "[1]; PO, 30 mg/kg", "result": 8.2925, "unit": "L/kg"}, {"measurement": "onset of action", "setting": "[1]; oral administration", "result": 30, "unit": "min"}]}
